Where a name gives a salt, the structure may show the parent alone. Residues, ends and D or L forms follow the SMILES beside them. *: point of attachment. Cbz = O=C(OCc1ccccc1)*
Columns and labels:
HiBiT-GCase-L444P [1] = target: T1, HiBiT-GCase-L444P (Homo sapiens, UniProt P04062, L483P); conditions: for effect on HiBiT-GCase-L444P levels (in words): H4 cells, 1536-well format
T1 sequence (P04062 40-536 L483P): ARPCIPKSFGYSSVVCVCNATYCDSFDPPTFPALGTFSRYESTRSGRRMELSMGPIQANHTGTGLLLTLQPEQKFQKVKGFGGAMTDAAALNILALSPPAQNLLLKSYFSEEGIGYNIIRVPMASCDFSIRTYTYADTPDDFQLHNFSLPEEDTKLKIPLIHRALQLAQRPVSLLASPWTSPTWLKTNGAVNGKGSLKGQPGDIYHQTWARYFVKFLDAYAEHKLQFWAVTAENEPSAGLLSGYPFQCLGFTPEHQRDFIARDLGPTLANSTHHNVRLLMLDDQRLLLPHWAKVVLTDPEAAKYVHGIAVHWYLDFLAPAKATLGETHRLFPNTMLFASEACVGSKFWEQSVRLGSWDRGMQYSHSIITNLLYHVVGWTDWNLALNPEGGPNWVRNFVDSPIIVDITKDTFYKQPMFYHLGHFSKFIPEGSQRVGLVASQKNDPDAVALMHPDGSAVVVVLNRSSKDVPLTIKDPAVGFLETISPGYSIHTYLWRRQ

HiBiT-GCase-L444P [2] = target: T1, HiBiT-GCase-L444P; assay: cell-based; conditions: AC50 (uM), Table S1, confirmed follow-up hits; 24 h treatment; n = 3

In the case of `CC(C)C[C@@H](C=O)NC(=O)[C@H](CC(C)C)NC(=O)[C@H](CC(C)C)NC(=O)OCc1ccccc1` [MG-132] (Cbz-Leu-Leu-Leu-aldehyde), the “effect on HiBiT-GCase-L444P levels (in words)” value (HiBiT-GCase-L444P [1]; 24 h treatment) was “selectively stabilized HiBiT-GCase-L444P with a dose-dependent response”.
For `Cc1cc(OCc2nnc(SC3CCCC3)n2-c2cccnc2)ccc1-c1ccc(S(C)(=O)=O)cc1` [NCGC00371131-03, NMS-873], the “effect on HiBiT-GCase-L444P levels (in words)” value (HiBiT-GCase-L444P [1]; 24 h treatment) was “selectively stabilized HiBiT-GCase-L444P with a dose-dependent response”.
For `CNCCCC12CCC(c3ccccc31)c1ccccc12` [NCGC00390084-01, Maprotiline hydrochloride], the “CC-v2 (qHTS curve class)” value (HiBiT-GCase-L444P [1]; Table S1, confirmed follow-up hits, 24 h treatment, n = 3) was 2.2, the Efficacy (HiBiT-GCase-L444P [1]; Table S1, follow-up screen, 24 h, relative to DMSO control, text quotes these values in %, 100% = doubling of GCase levels) was 48 and the AC50 (HiBiT-GCase-L444P [2]) was 53 µM.

Reference: publication doi:10.1101/2024.03.22.586364, “Development of quantitative high-throughput screening assays to identify, validate, and optimize small-molecule stabilizers of misfolded β-glucocerebrosidase with therapeutic potential for Gaucher disease and Parkinson’s disease” (bioRxiv, 2024)
